Assay results published in patent US20210324005A1, “Beta-Arrestin Effectors and Compositions and Methods of Use Thereof” (Trevena, Inc., priority 2020, published 2021).

Amino acid sequences for entries named in this document (tags omitted).
UniProt P25095, whole entry: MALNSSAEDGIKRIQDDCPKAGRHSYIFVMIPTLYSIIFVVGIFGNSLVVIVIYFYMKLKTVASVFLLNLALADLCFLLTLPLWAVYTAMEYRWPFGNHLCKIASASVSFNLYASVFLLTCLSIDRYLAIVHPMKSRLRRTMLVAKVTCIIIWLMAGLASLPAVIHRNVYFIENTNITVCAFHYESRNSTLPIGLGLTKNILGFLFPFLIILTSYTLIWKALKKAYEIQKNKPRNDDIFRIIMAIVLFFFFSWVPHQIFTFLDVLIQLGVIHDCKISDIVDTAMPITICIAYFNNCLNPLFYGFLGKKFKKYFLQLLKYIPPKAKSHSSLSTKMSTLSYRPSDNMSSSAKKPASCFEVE

Tests used:
Format in all cases: cell-based
[1] = molecular target: T1, human AT1R (Homo sapiens, UniProt P30556); assay: IP1 accumulation assay (IP-One Tb), human AT1R; settings: agonist detection, inactive = EC50 greater than 10 uM
[2] = molecular target: T2, rat AT1aR (Rattus norvegicus, UniProt P25095); assay: IP1 accumulation assay (IP-One Tb), rat AT1aR; settings: agonist detection, inactive = EC50 greater than 10 uM
[3] = molecular target: T2, rat AT1aR; assay: PathHunter β-arrestin-2 recruitment assay, rat AT1aR; settings: PathHunter β-arrestin HEK293 cells; inactive = EC50 greater than 10 uM; read-out: rat AT1aR b-arrestin2 EC50
Method: (§1) The proximal event in β-arrestin function mediated by GPCRs is recruitment to receptors following ligand binding and receptor phosphorylation by GRK's. Thus, the measure of β-arrestin recruitment was used to determine ligand efficacy for β-arrestin function.
(§2) B-arrestin-2 recruitment to the human and rat angiotensin 2 type 1 receptor (human AT1R and rat AT1aR, respectively) was measured with the PathHunter™ β-arrestin assay (DiscoveRx Corporation, Fremont Calif.). Cells, plasmid(s), and detection reagent(s) were purchased from DiscoveRx, and assays were performed per the manufacturer's instructions. Human AT1R and rat AT1aR were cloned into the pCMV-ProLink vector, verified by sequencing, and transfected into PathHunter β-arrestin HEK293 cells. Stably transfected clonal cell lines were selected with Hygromycin and G418. These clonal cell lines were used for all experiments.
(§3) For assays, 25,000 cells were seeded per well in 96-well microplates in volumes of 90 μL and allowed to grow overnight at 37° C. in 5% CO2. Peptides provided herein were dissolved in deionized water to a concentration of 1 mM. Peptides were then further diluted in assay buffer (Hank's balanced salt solution with 20 mM HEPES) to add peptide to the cells to reach final concentrations ranging from 10 μM to 1 pM. Cells were then incubated for 60 minutes at 37° C. in 5% CO2, followed by the addition of 50 μL of PathHunter Detection Reagent to each well. The microplates were then incubated at room temperature for 60 minutes, and then luminescence was measured using a NOVOstar microplate reader purchased from BMG Labtech. B-arrestin-2 recruitment to receptors was measured as relative luminescence intensity expressed in arbitrary units.

[4] = molecular target: T1, human AT1R; assay: PathHunter β-arrestin-2 recruitment assay, human AT1R; settings: PathHunter β-arrestin HEK293 cells; inactive = EC50 greater than 10 uM; read-out: human AT1R b-arrestin2 EC50
Method: as §1, §2, §3

| Compound | EC50 [1] [nM] | EC50 [2] [nM] | EC50 [3] [nM] | EC50 [4] [nM] |
| --- | --- | --- | --- | --- |
| CC[C@H](C)[C@H](NC(=O)[C@@H]1CCCN1C(=O)[C@H](Cc1c[nH]cn1)NC(=O)[C@H](Cc1ccc(O)cc1)NC(=O)[C@H](Cc1ccc(O)cc1)NC(=O)[C@@H](NC(=O)[C@H](CCCNC(=N)N)NC(=O)CNC)C(C)C)C(N)=O [SEQ ID NO: 15, Sar-Arg-Val-Tyr-Tyr-His-Pro-Ile-NH2] | 250 | – | – | – |
| CC[C@H](C)[C@H](NC(=O)[C@H](Cc1cc([N+](=O)[O-])c(O)c([N+](=O)[O-])c1)NC(=O)[C@@H](NC(=O)[C@H](CCCNC(=N)N)NC(=O)CNC)C(C)C)C(=O)N[C@@H](Cc1c[nH]cn1)C(=O)N1CCC[C@H]1C(=O)N[C@H](C)C(=O)O [SEQ ID NO: 73, Sar-Arg-Val-GGG-Ile-His-Pro-D-Ala-OH] | – | 2500 | – | – |
| CC[C@H](C)[C@H](NC(=O)[C@@H]1CCCN1C(=O)[C@H](Cc1c[nH]cn1)NC(=O)[C@@H](NC(=O)[C@H](Cc1ccc(O)cc1)NC(=O)[C@@H](NC(=O)[C@H](CCCNC(=N)N)NC(=O)CNC)C(C)C)C(C)C)C(N)=O [SEQ ID NO: 12, Sar-Arg-Val-Tyr-Val-His-Pro-Ile-NH2] | – | 79 | 120 | – |
| CC[C@H](C)[C@@H]1NC(=O)[C@H](Cc2ccc(O)cc2)NC(=O)[C@H](C(C)C)NC(=O)[C@H](CCCNC(=N)N)NC(=O)[C@@H]2CCCN2C(=O)[C@H](Cc2c[nH]cn2)NC(=O)[C@H]([C@@H](C)CC)NC(=O)[C@H](Cc2ccc(O)cc2)NC(=O)[C@H](C(C)C)NC(=O)[C@H](CCCNC(=N)N)NC(=O)[C@@H]2CCCN2C(=O)[C@H](Cc2c[nH]cn2)NC(=O)[C@H]([C@@H](C)CC)NC(=O)[C@H](Cc2ccc(O)cc2)NC(=O)[C@H](C(C)C)NC(=O)[C@H](CCCNC(=N)N)NC(=O)[C@@H]2CCCN2C(=O)[C@H](Cc2c[nH]cn2)NC1=O [SEQ ID NO: 36] | – | 100 | 1900 | 1200 |
| CC[C@H](C)[C@H](NC(=O)[C@H](Cc1ccc(O)cc1)NC(=O)[C@@H](NC(=O)[C@H](CCCNC(=N)N)NC(=O)[C@H](C)NC)C(C)C)C(=O)N[C@@H](Cc1c[nH]cn1)C(=O)N1CCC[C@H]1C(=O)N[C@H](C)C(=O)O [SEQ ID NO: 44, NMAla-Arg-Val-Tyr-Ile-His-Pro-D-Ala-OH] | – | 8.2 | – | – |
| CC[C@H](C)[C@H](NC(=O)[C@@H]1CCCN1C(=O)[C@H](Cc1c[nH]cn1)NC(=O)[C@H](Cc1ccc(O)cc1)NC(=O)[C@H](Cc1ccc(O)cc1)NC(=O)[C@@H](NC(=O)[C@H](CCCNC(=N)N)NC(=O)CNC)C(C)C)C(=O)O [SEQ ID NO: 14, Sar-Arg-Val-Tyr-Tyr-His-Pro-Ile-OH] | 160 | 32 | – | – |
